Values of other authors as cited in patent US6086915A, “Compositions and methods of adjusting steroid hormone metabolism through phytochemicals” (priority 1998, dated 2000).

Conditions: in vivo; cited from earlier work

d-α-Tocopheryl Polyethylene Glycol-1000 Succinate [TPGS]
uptake of vitamin D and cyclosporine: increase the uptake of vitamin D and poorly soluble drugs such a cyclosporine
